The values below come from patent US11312940B2, “Progenitor cells and methods for preparing and using the same” (University of Louisville Research Foundation, Inc., priority 2015, dated 2022).

The test system of one assay is UCB-derived MSCs. Briefly: Transwell chemotactic migration assay, UCB-MSCs. The conditions noted are these: FSH 10 IU/mL, 48 hours. The class given is cell-based, human. The procedure: The Transwell migration assay was performed as follows. UCB-derived HSPCs were rendered quiescent by incubation in RPMI medium supplemented with 0.5% BSA for 5 hours at 37° C. and then seeded at a density of 10×10^4 cells/100 μL per insert into the upper chambers of Transwell polycarbonate membrane inserts with 8-μm pore size (COSTAR™ TRANSWELL™; Corning Costar, Corning, N.Y., United States of America). The lower modified Boyden's chambers contained different concentrations of FSH (2-20 IU/mL), LH (2-20 IU/mL), prolactin (0.5-5 μg/mL), estradiol (0.1-1 μM), or progesterone (0.1-1 μM). FBS (10%) and BSA (0.5%) in RPMI 1640 medium were used as positive and negative controls, respectively. After 3 hours of stimulation at 37° C., the migrated cells were collected from the lower chambers and then scored using fluorescence-activated cell sorting (FACS) analysis. For UCB-MSC chemotaxis, cells were detached with 0.25% trypsin, starved for 24 hours, and then seeded into the upper gelatin-coated (0.5%) inserts at a density of 7×10^4 cells/insert in 100 μL. […] The cells that had migrated to the lower side of the membrane were fixed and stained with the FISHER HEALTHCARE™ PROTOCOL™ HEMA 3™ brand staining protocol (Fisher Scientific, Pittsburgh, Pa., United States of America) according to the manufacturer's instructions and then counted using an inverted microscope.

The test system of assay [1] is Sca-1+/Lin-/CD45- cells (VSELs). Description: In vivo BrdU incorporation into BM VSELs. Also noted: species or system mouse. The conditions noted are these: 10-day administration; female and male cells. The protocol:
(§1) Normal 2-month-old C57BL/6 mice were exposed to daily injections of FSH (5 IU/mice/day), LH (5 IU/mice/day), PRL (1 mg/mice/1 day), danazol (4 mg/kg/day), and estrogen (20 mg/mouse/day). Hormone treatment was performed for 10 days.
(§2) The following mAbs were employed to stain Lin^−/Sca-1^+/CD45^− and Lin^−/Sca-1^+/CD45^+ cells: biotin-conjugated rat anti-mouse Ly-6A/E (Sca-1, clone E13-161.7), streptavidin-PE-Cy5 conjugate, anti-CD45-APC-Cy7 (clone 30-F11), anti-CD45R/B220-PE (clone RA3-6B2), anti-Gr-1-PE (clone RB6-8C5), anti-TCRαβ-PE (clone H57-597), anti-TCRγζ-PE (clone GL3), anti-CD11b-PE (clone M1/70), and anti-Ter-119-PE (clone TER-119). […]
(§3) Adult C57BL/6 mice (4-8 weeks old; Jackson Laboratory) were intraperitoneally (i.p.) were injected daily with 1 mg of BrdU solution to evaluate whether SexHs affect proliferation of stem cells, and the final injection of BrdU was performed 1 hour before sacrificing the animals (see Grymula et al, 2014). […] Samples were analyzed with a Navios flow cytometer (Beckman Coulter).

In another assay the test system is HUVECs. Description: In vitro angiogenesis (tube-formation) assay. The conditions noted are these: FSH 10 IU/mL; Matrigel. The class given is cell-based, human. The procedure: The tube-formation assay was performed on a synthetic BD MATRIGEL® brand basement membrane complex with reduced growth factors (BD MATRIGEL®; BD Bioscience, San Diego, Calif., United States of America). In brief, the BD MATRIGEL® brand basement membrane complex was thawed overnight at 4° C. Twenty-four-well plates were coated with matrix and then polymerized for 1 hour at 37° C. Afterwards, HUVECs (60,000 cells/well) were resuspended in either serum-reduced medium containing 0.5% BSA in DMEM medium (negative control), medium containing FGF2 (50 ng/mL; positive control), CM from unstimulated hUCB-MSCs, medium supplemented with FSH (10 IU/mL), or CM collected from stimulated MSCs with the same concentration of FSH. The cells were seeded on the polymerized BD MATRIGEL® brand basement membrane complex in duplicate and kept in a humidified environment of 5% CO2 at 37° C. After 2 to 4 hours, the cultures were evaluated for capillary-like tube formation, the identical fields in each well were photographed, and the formed tubes in each group were then scored.

The subject of assay [2] is hVEGF2 mRNA in UCB-derived MSCs. Description: RQ-PCR of VEGF expression in MSCs. The class given is cell-based, human. Conditions: FSH 10 IU/mL, 12 and 24 hours, versus unstimulated cells. The procedure:
To evaluate the role of FSH in the regulation of genes expressed actively in angiogenesis, MSCs were kept in culture, either unstimulated or stimulated with FSH, for 12 to 24 hours. At various time points, the cells were collected, and total RNA was extracted and purified using the RNeasy Mini kit (Qiagen Inc., Germantown, Md., United States of America) after treatment with DNase I (Qiagen Inc., Germantown, Md., United States of America). The mRNA was then reverse-transcribed into cDNA using TAQMAN® Reverse Transcription Reagents (ThermoFischer Scientific Inc., Waltham, Mass., United States of America), according to the manufacturer's instructions. Quantitative assessment of mRNA levels of target genes was performed by RQ-PCR using an APPLIED BIOSYSTEMS® PRISM® Fast 7500 sequence detection system (ThermoFischer Scientific Inc., Waltham, Mass., United States of America). […] The threshold cycle (Ct), the cycle number at which the fluorescence of the amplified gene reached a fixed threshold, was subsequently determined, and the relative quantification of the expression level of target genes was performed with the 2-ΔΔCt method.

A further assay concerns BM VSELs. Briefly: Total number of BM VSELs by FACS after SexH administration. Type of assay: in vivo, mouse. The conditions noted are these: 10-day administration; for increase in total number of VSELs/10^6 BMMNCs: male BM. The protocol:
as §1
(§4) The following mAbs were employed to stain Lin^−/Sca-1^+/CD45^− and Lin^−/Sca-1^+/CD45^+ cells: biotin-conjugated rat anti-mouse Ly-6A/E (Sca-1, clone E13-161.7), streptavidin-PE-Cy5 conjugate, anti-CD45-APC-Cy7 (clone 30-F11), anti-CD45R/B220-PE (clone RA3-6B2), anti-Gr-1-PE (clone RB6-8C5), anti-TCRαβ-PE (clone H57-597), anti-TCRγζ-PE (clone GL3), anti-CD11b-PE (clone M1/70), and anti-Ter-119-PE (clone TER-119). All mAbs were added at saturating concentrations, and the cells were incubated for 30 minutes on ice, washed twice, and then resuspended for sorting in cell-sorting medium containing 1× Hank's Balanced Salt Solution without phenol red (GIBCO™, a division of Thermo Fisher Scientific Inc., Waltham, Mass.), 2% heat-inactivated fetal calf serum (GIBCO™), 10 mM HEPES buffer (GIBCO™), and 30 U/mL gentamicin (GIBCO™) at a concentration of 5×10^6 cells/mL. Sca-1^+/Lin^−/CD45^− cells (VSELs) and Sca-1^+/Lin^−/CD45^+ cells (HSCs) were isolated according to the gating and sorting strategy described in Zuba-Surma & Ratajczak, 2010 and Suszynska et al, 2014b. Proliferation events in BM-derived VSEL and HSC populations were examined by BrdU incorporation followed by flow cytometry.
For orientation: A flow cytometer gives signals particle by particle.

A further assay concerns BM HSPCs. Description: Total number of BM HSPCs by FACS after SexH administration. The class given is in vivo, mouse. Conditions: male and female mice, 10-day administration. The procedure: as §1
as §4, with “Proliferation events in BM-derived VSEL and HSC populations were examined by BrdU incorporation followed by flow cytometry.” left out

Assay [3] concerns murine BM-purified Sca-1+ cells. Description: Signal transduction in murine BM Sca-1+ cells. Type of assay: cell-based, mouse. Conditions: pituitary SexHs, 5 and 10 minutes, Sca-1+ BMMNCs. The procedure: Cells were kept in RPMI medium containing 0.5% BSA overnight in an incubator to achieve quiescence; then stimulated with FSH (5 IU), LH (5 IU), danazol (4 mg/mL), PRL (1 mg/mL), estradiol (0.1 mM), progesterone (0.1 mM), or vehicle only (0.9% sodium chloride diluted in medium with 0.5% BSA) for 5 or 10 minutes at 37° C.; and finally lysed for 20 min on ice with RIPA Lysis Buffer System (Santa Cruz Biotechnology, Inc., Santa Cruz, Calif.) containing protease and phosphatase inhibitors (Santa Cruz Biotechnology). The concentrations of extracted proteins were measured with the BCA Protein Assay Kit, according to the manufacturer's instructions (Thermo Fisher Scientific), and equal amounts of protein were separated and analyzed for phosphorylation of MAPKp44/42 and AKT (Ser473). Loading of the lanes was evaluated by stripping the blots and reprobing with antibodies against MAPKp44/42 and AKT. All phosphospecific antibodies were purchased from Cell Signaling Technology, Inc. (Danvers, Mass.) The membranes were developed with an AMERSHAM™ ECL™ Western Blotting Detection Reagents kit and exposed to AMERSHAM™ HYPERFILM™ (GE Healthcare Life Sciences, Little Chalfont, Buckinghamshire, United Kingdom).

A further assay concerns human MSCs. Description: Adhesion of MSCs to fibronectin. The class given is cell-based. The protocol: UCB-derived HSPCs and MSCs were made quiescent for 5 hours and 8 hours, respectively, with 0.5% BSA in a humidified atmosphere of 5% CO2 at 37° C. Next, cells were stimulated with FSH (10 IU/mL), LH (10 IU/mL), prolactin (2 μg/mL), estradiol (0.1 μM), or 0.5% BSA in RPMI 1640 medium for 5 minutes at 37° C. Cells were added directly onto the protein-coated wells (3×10^3 cells/well) in 96-well plates for 5 minutes. The wells were coated with fibronectin (10 μg/mL; Sigma-Aldrich, St. Louis, Mo., United States of America) overnight at 4° C. and blocked with BSA for 2 hours before starting the experiment. Following stimulation, the plates were vigorously washed 3 times, and adherent cells were counted under an inverted microscope.

The subject of assay [4] is Sca-1+/Lin-/CD45+ cells (HSPCs). Description: In vivo BrdU incorporation into BM HSPCs. The arrangement: species or system mouse. The conditions noted are these: 10-day administration. The protocol:
as §1, §2, §3
(Uptake of a labelled nucleoside into DNA is a usual measure of proliferation.)

Consider follicle-stimulating hormone [FSH], for which, in the assay with UCB-derived MSCs, the “chemoattraction (migration) of UCB-derived MSCs” value is “strongly chemoattracted”. For the same substance, the “BrdU incorporation response of Sca-1+/Lin-/CD45- cells (ranking)” value in assay [1] was “highest response”. In addition, the “tube formation by HUVECs” value with HUVECs is on record as “significantly enhanced”. Further, the “expression of VEGF (mRNA)” value in assay [2] is reported as “strongly upregulated”. The “increase in total number of VSELs/10^6 BMMNCs” value in the assay on BM VSELs is listed as “about 2.5 fold”. For the same substance, the “increase in BM HSPCs/10^6 BMMNCs (ranking)” value with BM HSPCs is given as “highest stimulatory effect”. The MAPKp42/44 phosphorylation result in assay [3] is recorded as “strongest stimulation”. Moreover, the “adhesion of MSCs” value in the assay on human MSCs is “slightly enhanced adhesion”. Moreover, the “increase in percentage of BrdU+ Sca-1+/Lin-/CD45+ cells (ranking)” value in assay [4] is reported as “highest increases”.

As for luteinizing hormone [LH], the “BrdU incorporation response of Sca-1+/Lin-/CD45- cells (ranking)” value in [1] is given as “highest response”. Moreover, the “increase in total number of VSELs/10^6 BMMNCs (ranking)” value with BM VSELs (female mice) was “most effective”. In addition, the “increase in total number of VSELs/10^6 BMMNCs” value in the assay on BM VSELs was “about 2.5 fold”. Also, in the assay on BM HSPCs, the “increase in BM HSPCs/10^6 BMMNCs (ranking)” value was “highest stimulatory effect”. For the same substance, the “increase in percentage of BrdU+ Sca-1+/Lin-/CD45+ cells (ranking)” value in [4] is “highest increases”.
